Laboratory results from patent US8431563B2 (priority 2010, dated 2013).

Legend:
Test in all cases: biochemical
[1] = target: T1, GK-GKRP (Homo sapiens, UniProt Q14397)
T1 sequence (Q14397 1-625): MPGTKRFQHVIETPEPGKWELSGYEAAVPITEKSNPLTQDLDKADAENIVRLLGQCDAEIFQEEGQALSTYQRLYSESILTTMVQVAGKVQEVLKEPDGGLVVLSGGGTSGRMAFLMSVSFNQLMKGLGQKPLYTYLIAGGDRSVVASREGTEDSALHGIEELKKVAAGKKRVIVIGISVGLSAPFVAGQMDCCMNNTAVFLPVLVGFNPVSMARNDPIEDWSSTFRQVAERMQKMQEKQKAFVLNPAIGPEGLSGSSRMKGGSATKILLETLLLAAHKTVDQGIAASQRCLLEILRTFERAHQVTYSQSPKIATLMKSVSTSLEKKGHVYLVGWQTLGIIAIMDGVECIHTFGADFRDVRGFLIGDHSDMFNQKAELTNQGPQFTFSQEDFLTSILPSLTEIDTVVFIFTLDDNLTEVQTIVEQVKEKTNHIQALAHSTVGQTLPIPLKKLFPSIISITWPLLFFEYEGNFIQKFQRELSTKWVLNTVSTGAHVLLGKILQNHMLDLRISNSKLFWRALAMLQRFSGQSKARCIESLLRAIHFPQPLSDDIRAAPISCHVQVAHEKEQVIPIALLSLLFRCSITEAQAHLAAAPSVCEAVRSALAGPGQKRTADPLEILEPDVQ

[2] = target: T1, GK-GKRP; details: GK-GKRP IC50 (Binding)
[3] = target: T2, GKRP (Glucokinase Regulatory Protein) with human His-hepatic GK (Homo sapiens, UniProt Q14397); details: 13C-glucose-6-phosphate formation; 280 nM GKRP (10×), 30 nM GK (5×); read-out: GK-GKRP EC50 (LC MS/MS-2)
T2 sequence (Q14397 1-625): T1 sequence (Q14397 1-625)

[4] = target: T3, interaction between glucokinase (GK) and glucokinase regulatory protein (GKRP) (Homo sapiens, UniProt Q14397); format: binding; details: avi-tagged GKRP, GK-fluorescein, AlphaScreen beads
T3 sequence (Q14397 1-625): T1 sequence (Q14397 1-625)

[5] = read-out: GK-GKRP IC50 (Binding)

For CC#CC1CN(S(=O)(=O)c2cccs2)CCN1c1ncc(C(C)(O)C(F)(F)F)cn1 (mixture of isomers), the EC50 [1] was 50 nM and the IC50 [2] was 19 nM.

Nc1ccc(S(=O)(=O)N2CCN(c3ccc(C(O)(C(F)(F)F)C(F)(F)F)cc3)CC2)cn1 [Example 91, 2-(4-(4-((6-amino-3-pyridinyl)sulfonyl)-1-piperazinyl)phenyl)-1,1,1,3,3,3-hexafluoro-2-propanol] gave an EC50 [3] of 142 nM.

Nc1ncc(S(=O)(=O)N2CCN(c3ccc(C(O)(C(F)(F)F)C(F)(F)F)cc3)CC2)cn1 [Example 96, 2-(4-(4-((2-amino-5-pyrimidinyl)sulfonyl)-1-piperazinyl)phenyl)-1,1,1,3,3,3-hexafluoro-2-propanol] was tested, and the EC50 [3] was 518 nM.

Work on Nc1ncc(S(=O)(=O)N2CCN(c3ccc(C(O)(C(F)(F)F)C(F)(F)F)cc3)CC2)cc1F [Example 97, 2-(4-(4-((6-amino-5-fluoro-3-pyridinyl)sulfonyl)-1-piperazinyl)phenyl)-1,1,1,3,3,3-hexafluoro-2-propanol] yielded an EC50 [3] of 299 nM.

With Nc1ccc(S(=O)(=O)N2CCN(c3ccc(C(O)(C(F)(F)F)C(F)(F)F)cc3)CC2)cc1F [Example 104, 2-(4-(4-((4-amino-3-fluorophenyl)sulfonyl)-1-piperazinyl)phenyl)-1,1,1,3,3,3-hexafluoro-2-propanol] the IC50 ([4]; GK-GKRP IC50 (Binding)) was 999 nM.

O=S(=O)(c1cccc(O)c1)N1CCN(c2ccc(C(O)(C(F)(F)F)C(F)(F)F)cc2)CC1 [Example 105, 3-((4-(4-(2,2,2-trifluoro-1-hydroxy-1-(trifluoromethyl)ethyl)phenyl)-1-piperazinyl)sulfonyl)phenol] showed an IC50 ([4]; GK-GKRP IC50 (Binding)) of 949 nM.

Compound Nc1ccccc1S(=O)(=O)N1CCN(c2ccc(C(O)(C(F)(F)F)C(F)(F)F)cc2)CC1 [Example 165, 2-(4-(4-(2-aminophenylsulfonyl)piperazin-1-yl)phenyl)-1,1,1,3,3,3-hexafluoro-2-propanol] has an EC50 [3] of 552 nM and an IC50 [4, 5] of 298 nM.

Nc1ccc(S(=O)(=O)N2CCN(c3ccc(C(O)(C(F)(F)F)C(F)(F)F)cc3)CC2)c(N)n1 [Example 166, 2-(4-(4-(2,6-diaminopyridin-3-ylsulfonyl)piperazin-1-yl)phenyl)-1,1,1,3,3,3-hexafluoro-2-propanol] gave an EC50 [3] of 262 nM and an IC50 [4, 5] of 299 nM.

Compound O=S(=O)(c1cscc1Br)N1CCN(c2ccc(C(O)(C(F)(F)F)C(F)(F)F)cc2)CC1 [Example 169, 2-(4-(4-(4-bromothiophen-3-ylsulfonyl)piperazin-1-yl)phenyl)-1,1,1,3,3,3-hexafluoro-2-propanol] has an IC50 [4, 5] of 816 nM.

With Nc1ccncc1S(=O)(=O)N1CCN(c2ccc(C(O)(C(F)(F)F)C(F)(F)F)cc2)CC1 [Example 260, 2-(4-(4-((4-amino-3-pyridinyl)sulfonyl)-1-piperazinyl)phenyl)-1,1,1,3,3,3-hexafluoro-2-propanol] the IC50 [2] was 591 nM.

Compound Nc1ccc(S(=O)(=O)N2CCN(c3ccc(C(O)(C(F)(F)F)C(F)(F)F)cc3)CC2)c(N)c1 [Example 261, 2-(4-(4-((2,4-diaminophenyl)sulfonyl)-1-piperazinyl)phenyl)-1,1,1,3,3,3-hexafluoro-2-propanol] has an IC50 [2] of 277 nM.

Like-named read-outs stand apart in the source and are kept apart here.
